Assays:
Conditions in all cases: mouse, in vivo
Lactobacillus = test system: Lactobacillus
anaerobes = test system: anaerobes
Enterobacteria = test system: Enterobacteria
[1] = test system: Enterococci and Streptococci
[2] = test system: digestive commensal flora

Substance: amoxicillin and clavulanic acid [AMC (Augmentin)]
- Lactobacillus came back to a value of (Lactobacillus): 6 logs
- Lactobacillus decreased (Lactobacillus): 7 logs
- anaerobic bacteria (anaerobes): 10^9 bacteria per gram per stool
- augmentation of Enterobacteria (Enterobacteria): ~3 logs
- decrease of Enterobacteria (Enterobacteria): 1 log
- augmentation of Enterococci and Streptococci [1]: 2 logs
- effect on the digestive commensal flora in mice [2]: perturbed the flora
